Reference: ChEMBL document CHEMBL3120054, “1-Aryl-2-((6-aryl)pyrimidin-4-yl)amino)ethanols as competitive inhibitors of fatty acid amide hydrolase” (Bioorg Med Chem Lett, 2014)

Chains of the proteins cited; added tags and fusions are not shown.
UniProt P97612, whole entry: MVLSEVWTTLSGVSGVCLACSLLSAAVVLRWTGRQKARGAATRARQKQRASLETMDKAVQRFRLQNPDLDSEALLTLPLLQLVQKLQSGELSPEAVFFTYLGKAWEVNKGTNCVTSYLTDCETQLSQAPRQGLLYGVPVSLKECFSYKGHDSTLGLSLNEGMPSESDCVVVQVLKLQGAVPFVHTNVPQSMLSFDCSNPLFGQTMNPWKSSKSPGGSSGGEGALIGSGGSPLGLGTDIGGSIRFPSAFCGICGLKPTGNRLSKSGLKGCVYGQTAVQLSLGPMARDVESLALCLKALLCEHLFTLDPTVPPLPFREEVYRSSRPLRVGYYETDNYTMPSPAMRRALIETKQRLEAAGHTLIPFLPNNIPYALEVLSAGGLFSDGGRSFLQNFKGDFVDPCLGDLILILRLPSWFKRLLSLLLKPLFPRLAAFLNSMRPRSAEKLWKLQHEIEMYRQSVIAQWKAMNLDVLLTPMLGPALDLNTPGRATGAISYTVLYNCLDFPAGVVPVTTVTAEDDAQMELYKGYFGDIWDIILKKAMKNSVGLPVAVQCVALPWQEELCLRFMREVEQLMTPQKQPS

Target: Fatty-acid amide hydrolase 1 (Rattus norvegicus, UniProt P97612)

SMILES: O[C@@H](CNc1cc(-c2ccc(C(F)(F)F)cc2)ncn1)c1ccccc1
- IC50: 94 nM

SMILES: O[C@@H](CNc1cc(-c2ccc(OC(F)(F)F)c(F)c2)ncn1)c1ccccc1
- IC50: 39 nM

SMILES: O[C@@H](CNc1cc(-c2ccc(OCC(F)(F)F)c(F)c2)ncn1)c1ccccc1
- IC50: 86 nM

SMILES: O[C@@H](CNc1cc(-c2ccc(Cl)c(C(F)(F)F)c2)ncn1)c1ccccc1
- IC50: 210 nM

These reach a lower IC50. Values come first.

- IC50: 7 nM
SMILES: O[C@@H](CNc1cc(-c2ccc(C(F)(F)F)c(Cl)c2)ncn1)c1ccc(F)c(F)c1

- IC50: 5.4 nM
SMILES: CC(=O)c1ccc(-c2cc(NC[C@H](O)c3ccccc3)ncn2)cc1F

Each block holds one molecule with its values, some of them ahead of it.
